Measured affinities in a library of Ab-91 heavy chain variants

Source: Engelhart et al. 2022 (doi:10.1038/s41597-022-01779-4), MIT Lincoln Laboratory and A-Alpha Bio; data file from the FLAb repository.

Target: peptide PDVDLGDISGINAS, taken from heptad repeat 2 (HR2) of SARS-CoV-2 spike.

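The starting antibody came from a phage panning campaign against this peptide. Library AAYL51 holds single substitutions and randomly drawn double and triple substitutions in the CDRs. Affinity was read by AlphaSeq, a pooled yeast mating assay with surface-displayed partners. Binding brings cells together so that they mate, and sequencing counts the barcode pairs among the diploids. Scores were corrected for input abundance and mapped to Kd with protein pairs of known affinity run in the same pool. The assay was run in three technical replicates.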

Parent scFv Ab-91: VL joined to VH by the linker GGGGSGGGGSGGGGS. Changes lie in the heavy chain CDRs alone.
VL: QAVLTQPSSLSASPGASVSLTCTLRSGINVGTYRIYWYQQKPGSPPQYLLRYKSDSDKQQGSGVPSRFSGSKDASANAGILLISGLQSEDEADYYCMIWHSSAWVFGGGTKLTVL
VH: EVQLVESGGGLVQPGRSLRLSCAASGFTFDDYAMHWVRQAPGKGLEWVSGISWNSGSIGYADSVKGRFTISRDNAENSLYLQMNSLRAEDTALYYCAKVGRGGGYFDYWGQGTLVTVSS

Sequences are complete VH domains. Affinities are written as log10 Kd with Kd in nM; a lower number is a better binder. A mean of the replicates is given; it leaves out those without a signal. An entry "nd" has no value in the source: the pair was not observed among the diploids in that replicate. This suggests poor binding but is not conclusive.

"replicates, log10 nM","log10 Kd (nM), mean",VH
nd / nd / nd,nd,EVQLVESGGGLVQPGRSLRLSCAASGFRFDDYAMHWVRQAPGKGLEWVSGISWNSWSIGYMDSVKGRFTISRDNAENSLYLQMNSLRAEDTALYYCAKVGRGGGYFDYWGQGTLVTVSS
nd / nd / nd,nd,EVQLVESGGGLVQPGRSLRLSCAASGFTFDDYAMHWVRQAPGKGLEWVSGISWNSGSIDYADSVKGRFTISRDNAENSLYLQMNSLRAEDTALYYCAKVGRGLGNFDYWGQGTLVTVSS
nd / 3.19 / nd,3.19,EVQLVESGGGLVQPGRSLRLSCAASGFMFDDYAMHWVRQAPGKGLEWVSGISKNSGSIGYAWSVKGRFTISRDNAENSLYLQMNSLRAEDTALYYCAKVGRGGGYFDYWGQGTLVTVSS
nd / 4.79 / nd,4.79,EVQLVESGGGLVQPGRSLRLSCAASGFTFDCYAMHWVRQAPGKGLEWVSGILWNSGSQGYADSVKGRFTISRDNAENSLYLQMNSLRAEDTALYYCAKVGRGGGYFDYWGQGTLVTVSS
nd / nd / 3.51,3.51,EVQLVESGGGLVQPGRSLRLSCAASGFTFDDYAMLWVRQAPGKGLEWVSGISYNSGSIGYADSVKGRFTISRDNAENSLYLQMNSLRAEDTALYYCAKVGRGMGYFDYWGQGTLVTVSS
nd / nd / nd,nd,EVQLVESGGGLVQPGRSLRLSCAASGFTVDDIAMHWVRQAPGKGLEWVSGISWNSGSIGYADSQKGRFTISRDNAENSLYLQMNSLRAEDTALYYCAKVGRGGGYFDYWGQGTLVTVSS
nd / nd / nd,nd,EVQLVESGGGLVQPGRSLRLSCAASGFTFDEYAMGWVRQAPGKGLEWVSGISWNSGSIGYADSVKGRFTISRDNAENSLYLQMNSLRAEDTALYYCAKVGRRGGYFDYWGQGTLVTVSS
nd / nd / nd,nd,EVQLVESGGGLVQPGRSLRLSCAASGFTFDDYAWWWVRQAPGKGLEWVSGISWNSGSIMYADSVKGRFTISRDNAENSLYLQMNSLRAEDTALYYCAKVGRGGGYFDYWGQGTLVTVSS
nd / nd / nd,nd,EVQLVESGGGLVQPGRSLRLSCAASGFTCDDYAMHWVRQAPGKGLEWVSGIHWNSGSIGYADSVKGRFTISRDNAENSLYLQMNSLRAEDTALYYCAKVGRGGWYFDYWGQGTLVTVSS
nd / nd / nd,nd,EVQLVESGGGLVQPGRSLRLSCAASGFTFDDYAMPWVRQAPGKGLEWVSGIMWNSGSIGYADSVKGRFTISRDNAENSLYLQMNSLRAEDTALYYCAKVGRGGGYPDYWGQGTLVTVSS
5.37 / 6.05 / 5.37,5.60,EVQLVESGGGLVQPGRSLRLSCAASGFSFDDYAMHWVRQAPGKGLEWVSGISWNSGSSGYADPVKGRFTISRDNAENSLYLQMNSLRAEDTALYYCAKVGRGGGYFDYWGQGTLVTVSS
nd / nd / nd,nd,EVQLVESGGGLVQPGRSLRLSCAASGFTFDDYAMHWVRQAPGKGLEWVSGISWNSGSIGYADSYKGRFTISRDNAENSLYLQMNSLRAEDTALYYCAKVWRGGGYFDWWGQGTLVTVSS
nd / nd / nd,nd,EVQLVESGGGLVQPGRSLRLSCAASGFTFDDYAMHWVRQAPGKGLEWVSGIEWNDGSIGYADSVKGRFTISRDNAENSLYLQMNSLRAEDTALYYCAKVGRGGGYFSYWGQGTLVTVSS
nd / 4.26 / nd,4.26,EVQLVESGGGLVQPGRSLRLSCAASGYTFDDYAMHWVRQAPGKGLEWVSGISWNSGSICYADSVKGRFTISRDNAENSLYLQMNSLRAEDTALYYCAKVGRGGGSFDYWGQGTLVTVSS
5.26 / 6.83 / 4.79,5.63,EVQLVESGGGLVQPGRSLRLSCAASGPTFDDYAMHWVRQAPGKGLEWVSGISWNSISIGYADSVKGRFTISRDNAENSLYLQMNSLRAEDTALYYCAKVGRGEGYFDYWGQGTLVTVSS
nd / nd / nd,nd,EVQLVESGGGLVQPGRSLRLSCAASGFTFDDYAMHWVRQAPGKGLEWVSGIPWNSGSIGYHDSVKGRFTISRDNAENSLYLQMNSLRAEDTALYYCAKRGRGGGYFDYWGQGTLVTVSS
3.35 / 4.06 / 4.32,3.91,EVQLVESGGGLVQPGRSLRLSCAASGFTFDDYAMHWVRQAPGKGLEWVSGISWNAGSIGYAKSVKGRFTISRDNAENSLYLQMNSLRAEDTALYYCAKVGRGGGYFDIWGQGTLVTVSS
nd / 4.50 / nd,4.50,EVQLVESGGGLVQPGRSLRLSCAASGFTFDDYAVHWVRQAPGKGLEWVSGISWNSGSIGYADSVKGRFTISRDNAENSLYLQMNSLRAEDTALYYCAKVQDGGGYFDYWGQGTLVTVSS
4.46 / 4.48 / nd,4.47,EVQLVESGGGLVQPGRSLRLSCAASGRTFWDYAMHWVRQAPGKGLEWVSGISWNSGSIMYADSVKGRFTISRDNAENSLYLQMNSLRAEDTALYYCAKVGRGGGYFDYWGQGTLVTVSS

Extract of 3 entries:

VH,"replicates, log10 nM","log10 Kd (nM), mean"
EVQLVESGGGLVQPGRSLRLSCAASGFTFDDYAMLWVRQAPGKGLEWVSGISYNSGSIGYADSVKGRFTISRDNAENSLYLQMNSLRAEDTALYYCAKVGRGMGYFDYWGQGTLVTVSS,nd / nd / 3.51,3.51
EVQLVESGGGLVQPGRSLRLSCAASGFTFDDYAMHWVRQAPGKGLEWVSGISWNSGSIGYADSYKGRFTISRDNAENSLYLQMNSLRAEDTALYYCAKVWRGGGYFDWWGQGTLVTVSS,nd / nd / nd,nd
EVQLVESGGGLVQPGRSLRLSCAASGFTFDDYAMHWVRQAPGKGLEWVSGISWNAGSIGYAKSVKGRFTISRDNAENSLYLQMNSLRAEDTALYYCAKVGRGGGYFDIWGQGTLVTVSS,3.35 / 4.06 / 4.32,3.91

As a blank, each scFv also met three strains without target: over library AAYL51, 21% of these pairings were detected, typically at 4.54 and seldom below 3.26. Parent in this assay: reference entry 1.86, copy in this library 0.88.